Laboratory results reported in patent publication EP1200406B1, “CYCLIC AMIDES AND IMIDES HAVING SELECTIVE ANTAGONIST ACTIVITY AT ALPHA-1D ADRENERGIC RECEPTOR” (RECORDATI INDUSTRIA CHIMICA E FARMACEUTICA S.p.a., priority 1999, dated 2001).

Sequences of proteins named here, by UniProt entry; tags and fusion partners are left off.
UniProt P25100, whole entry: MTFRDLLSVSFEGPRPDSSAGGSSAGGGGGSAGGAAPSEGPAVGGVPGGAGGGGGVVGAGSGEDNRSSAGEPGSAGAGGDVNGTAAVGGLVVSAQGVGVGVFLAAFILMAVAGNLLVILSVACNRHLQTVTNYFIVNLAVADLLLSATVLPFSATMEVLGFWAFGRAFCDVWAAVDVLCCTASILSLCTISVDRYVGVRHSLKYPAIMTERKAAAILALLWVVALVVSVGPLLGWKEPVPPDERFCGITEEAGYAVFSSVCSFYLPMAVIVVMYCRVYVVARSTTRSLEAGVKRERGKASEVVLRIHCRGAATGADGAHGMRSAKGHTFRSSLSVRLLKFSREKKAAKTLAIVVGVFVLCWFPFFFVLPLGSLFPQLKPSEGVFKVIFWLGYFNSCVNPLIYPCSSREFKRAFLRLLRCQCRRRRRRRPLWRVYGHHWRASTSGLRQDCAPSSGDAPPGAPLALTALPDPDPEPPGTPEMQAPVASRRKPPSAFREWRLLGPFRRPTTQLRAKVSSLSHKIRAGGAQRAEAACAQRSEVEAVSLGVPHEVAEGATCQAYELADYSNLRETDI

Tests used:
[1] = target: T1, human recombinant α1a adrenoceptor (Homo sapiens, UniProt P35348); test: Radioligand binding ([3H]prazosin) on membranes of CHO cells expressing cloned α1a adrenoceptor; settings: human cloned receptor, CHO cell membranes, 0.2 nM [3H]prazosin; read-out: Affinity (Ki) α1a
T1 construct: expressed in transfected cells; host or cells: CHO cells (membranes)
T1 sequence (P35348 1-466): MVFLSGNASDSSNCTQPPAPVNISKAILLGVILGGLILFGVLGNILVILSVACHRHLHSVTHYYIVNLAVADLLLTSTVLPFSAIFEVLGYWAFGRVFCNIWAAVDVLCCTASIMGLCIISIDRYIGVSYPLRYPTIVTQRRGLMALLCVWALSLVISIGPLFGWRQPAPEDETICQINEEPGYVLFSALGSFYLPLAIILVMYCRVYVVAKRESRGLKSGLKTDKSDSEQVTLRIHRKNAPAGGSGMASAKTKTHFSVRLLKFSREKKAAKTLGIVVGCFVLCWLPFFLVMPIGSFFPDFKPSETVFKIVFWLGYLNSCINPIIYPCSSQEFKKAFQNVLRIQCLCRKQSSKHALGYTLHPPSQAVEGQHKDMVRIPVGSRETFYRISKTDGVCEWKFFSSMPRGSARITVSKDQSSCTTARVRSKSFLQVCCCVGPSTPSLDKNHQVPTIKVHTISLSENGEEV
Description: (§1) The determination of affinity for cloned subtypes of human α1 adrenergic receptors was performed in membranes from CHO cells (chinese hamster ovary cells) transfected by electroporation with DNA expressing the genes encoding each α1-adrenoceptor subtype, namely α1a, α1b and α1d.. Cloning and stable expression of the human α1-adrenoceptor gene were performed as previously described (Testa et al., Pharmacol. Comm. 6, 79-86 (1995)). CHO cell membranes were incubated in […] Tris pH 7.4 with 0.2 nM [^3H]prazosin, in a final volume of 1.02 ml for 30 minutes at 25°C, in the absence or presence of competing drugs (1 pM-10 µM). Non-specific binding was determined in the presence of 10 µM phentolamine. Incubation was stopped by addition of ice-cold Tris buffer and rapid filtration through 0.2% polyethyleneimine pretreated Schleicher & Schuell GF52 filters. […] The HeLa cells were grown as monolayers in Dulbecco's modified Eagle's medium (DMEM), supplemented with 10% foetal calf serum and gentamicin (100 µg/ml), 5% CO2, at 37°C. […] The inhibition of specific binding of the radioligands by the drugs was analysed to estimate the IC50 value by using the non-linear curve-fitting programme Allfit (De Lean et al., Am. J. Physiol. 235, E97-E102 (1978)). […] Data were expressed as mean of Ki.

[2] = target: T2, human recombinant α1d adrenoceptor (Homo sapiens, UniProt P25100); test: Radioligand binding ([3H]prazosin) on membranes of CHO cells expressing cloned α1d adrenoceptor; settings: human cloned receptor, CHO cell membranes, 0.2 nM [3H]prazosin; read-out: Affinity (Ki) α1d
T2 construct: expressed in transfected cells; host or cells: CHO cells (membranes)
Description: as §1

SMILES | Ki [1] | Ki [2]
O=C1CCC(=O)N1CCN1CCN(c2cc(Cl)ccc2Cl)CC1 [Example 12, 1-{2-[4-(2,5-Dichlorophenyl)-1-piperazinyl]-ethyl}-pyrrolidine-2,5-dione] | 92 nM | 
O=C1CC2(CCCC2)CC(=O)N1CCN1CCN(c2cc(Cl)ccc2Cl)CC1 [Example 1, 8-{2-[4-(2,5-Dichlorophenyl)-1-piperazinyl]-ethyl}-8-azaspiro[4.5]decane-7,9-dione] | 128 nM | 
Cc1ccc(Cl)c(N2CCN(CCN3C(=O)CC4(CCCC4)CC3=O)CC2)c1 [Example 3, 8-{2-[4-(2-Chloro-5-methylphenyl)-1-pirerazinyl]-ethyl}-8-azaspiro[4.5]decane-7,9-dione] |  | 2.91 nM
